Assay results published in EPA's ToxRefDB 2.

Legend:
rabbit [1] = conditions: Prenatal developmental toxicity study, new zealand white, Oral, Gavage/Intubation, dose end: 13 day
rat [2] = conditions: Prenatal developmental toxicity study, sprague dawley, Oral, Gavage/Intubation, dose end: 18 GD
rat [3] = conditions: Prenatal developmental toxicity study, sprague dawley, Oral, Gavage/Intubation, dose end: 12 day
rat [4] = conditions: Sub-acute repeat dose toxicity; sprague dawley; Oral; Gavage/Intubation; dose end: 30 day; group: systemic; systemic / clinical chemistry / [other] / [other] + systemic / clinical chemistry / albumin / albumin + systemic / clinical chemistry / …
rat [5] = conditions: Prenatal developmental toxicity study, sprague dawley, Oral, Gavage/Intubation, dose end: 18 GD, group: maternal
rabbit [6] = conditions: Prenatal developmental toxicity study, Oral, Gavage/Intubation, dose end: 13 day
rabbit [7] = conditions: Prenatal developmental toxicity study, Oral, Gavage/Intubation, dose end: 19 GD
rabbit [8] = conditions: Prenatal developmental toxicity study, Oral, Gavage/Intubation, dose end: 13 day; remark: listed apart in the source
rat [9] = conditions: Chronic toxicity; sprague dawley; Oral; Gavage/Intubation; dose end: 182 day; group: systemic; systemic / in life observation / body weight / body weight + systemic / in life observation / food consumption / food consumption + systemic…
rat [10] = conditions: Prenatal developmental toxicity study, other, Oral, Feed, dose end: 20 PND
[11] = group: developmental, systemic / in life observation / body weight / fetal weight
[12] = group: maternal, systemic / in life observation / clinical signs / altered breathing rate + systemic / in life observation / clinical signs / drooping …
[13] = group: maternal, reproductive / reproductive performance / resorptions / resorptions + systemic / in life observation / body weight / body weight gain + …
[14] = systemic / in life observation / body weight / body weight gain + systemic / in life observation / food consumption / food consumption
[15] = group: maternal, reproductive / reproductive performance / implantations / implantations + reproductive / reproductive performance / resorptions / …
[16] = group: maternal, systemic / in life observation / body weight / body weight gain + systemic / in life observation / food consumption / food consumption
[17] = group: developmental, systemic / in life observation / body weight / offspring (pup) weight
[18] = group: maternal, systemic / in life observation / body weight / body weight gain

CN1N=C2CCN(C(=O)[C@@H](COCc3ccccc3)NC(=O)C(C)(C)N)C[C@@]2(Cc2ccccc2)C1=O [Capromorelin]
LEL (rabbit [1]; [11]): 15 mg/kg/day
LOAEL (rabbit [1]; [11]): > 100 mg/kg/day
NOAEL (rabbit [1]; [11]): ≥ 100 mg/kg/day
LEL (rabbit [1]; [12]): 15 mg/kg/day
LOAEL (rabbit [1]; [12]): > 100 mg/kg/day
NOAEL (rabbit [1]; [12]): ≥ 100 mg/kg/day
LEL (rat [2]; group: developmental, developmental / developmental malformation / bone / full supernumerary): 1 mg/kg/day
LEL (rat [2]; group: maternal, systemic / in life observation / body weight / body weight + systemic / in life observation / food consumption / food consumption): 15 mg/kg/day

O=C(Cc1ccc(Cl)c(Cl)c1)N(O)[C@H](CN1CC[C@H](O)C1)c1ccccc1
LEL (rat [3]; [11]): 75 mg/kg/day
LOAEL (rat [3]; [11]): > 75 mg/kg/day
NOAEL (rat [3]; [11]): ≥ 75 mg/kg/day
LEL (rat [3]; [13]): 15 mg/kg/day
LOAEL (rat [3]; [13]): > 75 mg/kg/day
NEL (rat [3]; [13]): 1 mg/kg/day
NOAEL (rat [3]; [13]): ≥ 75 mg/kg/day
LEL (rat [4]): 15 mg/kg/day
LOAEL (rat [5]; [14]): > 15 mg/kg/day
NEL (rat [5]; [14]): 1 mg/kg/day
NOAEL (rat [5]; [14]): ≥ 15 mg/kg/day
LEL (rat [5]; systemic / in life observation / food consumption / food consumption): 5 mg/kg/day
LEL (rabbit [6]; [11]): 15 mg/kg/day
LOAEL (rabbit [6]; [11]): > 15 mg/kg/day
NOAEL (rabbit [6]; [11]): ≥ 15 mg/kg/day
LOAEL (rabbit [6]; [15]): > 15 mg/kg/day
NOAEL (rabbit [6]; [15]): ≥ 15 mg/kg/day
LEL (rabbit [6]; [16]): 5 mg/kg/day
LEL (rabbit [7]; group: developmental, developmental / developmental malformation / bone / delayed ossification + systemic / in life observation / body weight / fetal weight): 5 mg/kg/day
LEL (rabbit [7]; [16]): 1 mg/kg/day
LEL (rabbit [8]; [11]): 10 mg/kg/day
LOAEL (rabbit [8]; [11]): > 15 mg/kg/day
NOAEL (rabbit [8]; [11]): ≥ 15 mg/kg/day
LOAEL (rabbit [8]; [13]): > 15 mg/kg/day
NOAEL (rabbit [8]; [13]): ≥ 15 mg/kg/day
LEL (rabbit [8]; [16]): 1 mg/kg/day
NEL (rabbit [8]; [16]): < 1 mg/kg/day
LEL (rat [9]): 15 mg/kg/day

CC(C)(c1cc(Br)c(O)c(Br)c1)c1cc(Br)c(O)c(Br)c1 [3,3',5,5'-Tetrabromobisphenol A]
LEL (rat [10]; [17]): 819 mg/kg/day
LOAEL (rat [10]; [17]): > 819 mg/kg/day
NEL (rat [10]; [17]): 86.8 mg/kg/day
NOAEL (rat [10]; [17]): ≥ 819 mg/kg/day
LEL (rat [10]; [18]): 819 mg/kg/day
LOAEL (rat [10]; [18]): > 819 mg/kg/day
NEL (rat [10]; [18]): 86.8 mg/kg/day
NOAEL (rat [10]; [18]): ≥ 819 mg/kg/day
